Laboratory results reported in article PMC5762686, “Structural ensemble-based docking simulation and biophysical studies discovered new inhibitors of Hsp90 N-terminal domain” (Scientific Reports, 2018).
pKd: −log10 of the molar value.

Protein sequences, listed by entry. Tags and fused reporters are not part of them. Residues count along the entry.
UniProt P07900, 1-235 limits assumed: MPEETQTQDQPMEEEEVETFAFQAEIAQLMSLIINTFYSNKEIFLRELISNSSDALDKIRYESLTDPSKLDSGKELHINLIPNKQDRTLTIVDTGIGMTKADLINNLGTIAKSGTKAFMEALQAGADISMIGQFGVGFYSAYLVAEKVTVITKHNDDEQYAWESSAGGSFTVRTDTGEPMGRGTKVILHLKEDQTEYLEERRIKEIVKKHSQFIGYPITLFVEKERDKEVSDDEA

Tests used:
[1] = target: Hsp90 N-terminal domain (Hsp90N, residues 1–235 of human Hsp90α) (Homo sapiens, UniProt P07900); assay: 2D [1H,15N] HSQC NMR titration with line-shape analysis (TITAN) for Kd; format: binding; conditions: for pKd: 2D NMR line-shape analysis, 25 °C, pH 7.0; for LE (ligand efficiency): calculated as −1.37 × (Log10Kd)/HA
Hsp90N = Hsp90N (Homo sapiens, UniProt P07900); assay: Differential scanning fluorimetry (DSF), change of Tm; format: binding; conditions: apo Tm 44.4 °C, Hsp90N 2 μM, inhibitor 200 μM
MCF7 cells = assay: Cell growth inhibition, MTT assay; format: cell-based; conditions: MCF7, 10 nM to 10 μM, 48 h

Row | pKd [1] | LE (ligand efficiency) [1] | elevated Tm values (Hsp90N) [°C] | Structure (SMILES) | Cell growth inhibition (MCF7 cells)
1 | 7.00 | 0.44 | 8.9 | Cc1[nH]nc(-c2ccc(O)cc2O)c1Oc1ccccc1F | significantly inhibitory
2 | 4.48 | 0.29 | 3.5 | COc1ccc(-c2n[nH]cc2-c2ccc(F)cc2)c(O)c1 | –
3 | 5.30 | 0.30 | 6.5 | NC(=O)CSc1nnc(-c2cc(Br)ccc2O)n1-c1ccccc1 | –
4 | 6.46 | 0.40 | 7.3 | CCc1cc(-c2n[nH]cc2-c2nc(C)cs2)c(O)cc1OC | significantly inhibitory
